## scFv variants of Ab-14 (heavy chain) against a SARS-CoV-2 spike peptide

Antigen: PDVDLGDISGINAS, a 14-residue peptide of the SARS-CoV-2 spike HR2 region.

Ab-14 is the parent antibody, in scFv form: VH, then the linker GGGGSGGGGSGGGGS, then VL. The light chain is unchanged in all variants.
VH: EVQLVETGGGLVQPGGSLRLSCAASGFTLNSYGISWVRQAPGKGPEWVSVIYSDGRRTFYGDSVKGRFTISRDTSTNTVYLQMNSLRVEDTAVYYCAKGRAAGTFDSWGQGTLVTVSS
VL: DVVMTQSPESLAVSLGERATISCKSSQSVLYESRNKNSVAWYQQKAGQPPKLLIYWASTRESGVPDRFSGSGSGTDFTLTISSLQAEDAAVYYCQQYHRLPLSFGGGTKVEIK

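The variants were designed computationally from a first round of random CDR variants and then made and measured. Group labels follow the data file (Ctrl: baseline library sampled from a position-specific scoring matrix, with some repeated check sequences; Rand: our label for a block that the file lists under HC and that is probably the random mutants of the ten best first-round binders; En: ensemble of fine-tuned language models; GP: Gaussian process model; GPLM: also part of the Gaussian process libraries; HC: hill climbing; Gen: genetic algorithm; Gibbs: Gibbs sampling; a sequence that several methods proposed may carry one label only). The assay is AlphaSeq: two haploid yeast populations carry antibody and antigen on their surface. Binding brings cells together so that they mate, and sequencing counts the barcode pairs among the diploids. The ratio of observed to expected reads was calibrated, replicate by replicate, on BCL2-family standards whose Kd was known from biolayer interferometry. Each pool was mated in six replicate cultures.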

The parent's heavy chain CDRs are GFTLNSYGIS, VIYSDGRRTFYGDSVK, GRAAGTFDS; each variant's own CDRs replace them letter for letter. Numbers give log10(Kd / nM), so 0 is 1 nM and 3 is 1 µM. Smaller is tighter. The mean shown is taken over the replicates in which the pair was detected. A pair that was not seen in any replicate is written "nd"; this usually means weak binding, but a binder can also be missed. Entries are sorted by rising average, undetected variants last. Three control strains display no target. For all heavy chain designs, 1% of the pairings with them gave a signal, with a median of 2.08 and one signal in twenty below 0.84, so weak values seen in few replicates may be background. Also given: how often the same scFv was detected with the empty control strains.

Variant GFDLNEYGIS | VIYADGMRTYYADDVK | GQNAGTFDI [En_Gen] gave -1.37 (5 of 6 replicates; controls 0 of 18).
Variant GFSLNEYGIS | VIYADGRRTFYADSVK | GNQAGTFDE [En_HC] gave -0.89 (6 of 6 replicates; controls 0 of 18).
Variant GFDLNEYGIS | VIYADGQRTAYSDSVK | GNVAGTFDT [En_Gen] gave -0.78 (6 of 6 replicates; controls 0 of 18).
Variant GFDLDEYGIS | VIYADGMRTAYADSVK | GNHAGTFDV [En_Gen] gave -0.77 (5 of 6 replicates; controls 0 of 18).
Variant GFDIQDYGIS | VIYADGLRTAYSDGFK | GIIAGTFNI [En_Gibbs] gave -0.44 (6 of 6 replicates; controls 0 of 18).
Variant GFDLNEYGIS | VIYADGRRTFYSDSVK | GNVAGSFDV [En_HC] gave -0.39 (6 of 6 replicates; controls 0 of 18).
Variant GFDLNEYGIS | VIYADGVRTAYSDDVK | GNNAGTFDV [En_Gen] gave -0.38 (6 of 6 replicates; controls 0 of 18).
Variant GFDLNEYGIS | VIYADGRRTFYTDSVK | GEHAGSFDV [En_HC] gave -0.29 (6 of 6 replicates; controls 0 of 18).
Variant GFNIDEYGIS | VIYADGVRTAYADKVK | GFNQVLSVN [En_Gibbs] gave -0.28 (6 of 6 replicates; controls 0 of 18).
Variant GFTLDEYGIS | VIYADGRRTFYIDSVK | GETAGTFDV [En_HC] gave -0.25 (6 of 6 replicates; controls 1 of 18).
Variant GFDLNEYGIS | VIYADGKRTAYQDSVK | GENAGTFDV [En_Gen] gave -0.22 (6 of 6 replicates; controls 0 of 18).
Variant GFKLNEYGIS | VIYSDGRRTFYGDSVK | GKTAGTFDS [GP_Gen] gave 0.14 (6 of 6 replicates; controls 1 of 18).
Variant GFELNDYGIS | VIYSDGRRTFYHDSVK | GRAAGTFDS [GP_HC] gave 0.27 (6 of 6 replicates; controls 0 of 18).
Variant GFTLNSYGIS | VIYSDGRRTFYGDSVK | GRVAGLFNS [Ctrl] gave 0.44 (4 of 6 replicates; controls 0 of 18).
Variant GFDLNSYGIS | VIYSDGRRTFYKDSVK | GNAAGTFDS [GPLM_Gibbs] gave 0.61 (6 of 6 replicates; controls 0 of 18).
Variant GFSLNEYGIS | VIYSDGRRTFYGQSVK | GRAAGTFDS [GPLM_Gen] gave 0.64 (6 of 6 replicates; controls 0 of 18).

Further variants, results first:

0.66 (6 of 6 replicates; controls 0 of 18): GFTLNSYGIS | VIYADGRRTFYGDSVK | GEAAGTFKM [GP_HC].
0.76 (10 of 12 replicates; controls 0 of 36): GFTLNEYGIS | VIYSDGRRTFYGDSVK | GRMAGTFDS [Ctrl+GPLM_Gen].
0.85 (5 of 6 replicates; controls 0 of 18): GFWLNSYGIS | VIYSDGRRTFYADSVK | GRTAGTFDS [GPLM_Gen].
1.43 (6 of 6 replicates; controls 0 of 18): GFTLNSYGIS | VIYSDGRRTFYGDSVV | GREAGTFDS [Ctrl].
1.75 (4 of 6 replicates; controls 0 of 18): GFNLNSYGIS | VIYSDGRRTFYLDSVK | GQAAGTFDS [GP_Gibbs].
2.07 (1 of 6 replicates; controls 0 of 18): GFDLNEYGIS | VIYADGRRTFYADSVK | GNNAGTFIF [En_HC].
2.91 (5 of 6 replicates; controls 0 of 18): GFTLDSYGIS | VIYSDGSRTFYGDSVK | GRPAGTFDS [Ctrl].
3.01 (5 of 6 replicates; controls 0 of 18): MFELNSYGIS | VIYADGRRTFYGDSVK | GEAAGTFDF [GP_Gibbs].
nd (0 of 6 replicates; controls 0 of 18): GFTLNSYGIS | VIYSDGRRTFYKGSVK | GRAFGTFDS [Rand].
nd (0 of 6 replicates; controls 0 of 18): GFPIDEYGIS | VIYADGRRTVYSDNVK | GNYGASGKI [En_Gibbs].
nd (0 of 6 replicates; controls 0 of 18): GDSLDEYGIS | VIYADGQRKAYSDNVK | GVGQAVLFD [En_Gibbs].
nd (0 of 6 replicates; controls 0 of 18): GKDLDEYGIS | VIYADGKRTHYVENVK | GQFGGNLLD [En_Gibbs].
nd (0 of 6 replicates; controls 0 of 18): GFTLNSYGIS | VIYSDGRRTFYQDSVK | GTGAGNNDS [Ctrl].
nd (0 of 6 replicates; controls 0 of 18): GFTLNSYGIS | VIYSDGRRTFYTDSVK | GKAAGTFHS [Ctrl].
nd (0 of 6 replicates; controls 0 of 18): GFTLNSYGIS | VIYSDGFRCGYNDSVK | GYAAGTFDS [Ctrl].
nd (0 of 6 replicates; controls 0 of 18): GFTLNSYGIS | VIYSDGVRTFYSDSVK | GRAAVTFDS [GP_HC].

The opening 4 entries, copied out:

CDR-H1	CDR-H2	CDR-H3	group	mean, log10 nM	replicates with signal	control signals
GFDLNEYGIS	VIYADGMRTYYADDVK	GQNAGTFDI	En_Gen	-1.37	5 of 6	0 of 18
GFSLNEYGIS	VIYADGRRTFYADSVK	GNQAGTFDE	En_HC	-0.89	6 of 6	0 of 18
GFDLNEYGIS	VIYADGQRTAYSDSVK	GNVAGTFDT	En_Gen	-0.78	6 of 6	0 of 18
GFDLDEYGIS	VIYADGMRTAYADSVK	GNHAGTFDV	En_Gen	-0.77	5 of 6	0 of 18

In the paper, a design with two or fewer of six values counts as a poor binder. The range of this assay differs from that of the first round, and the authors advise against merging the two. Where one sequence has several entries in the source, the replicates are pooled.

The measurements come from Li et al. 2023 (doi:10.1038/s41467-023-39022-2) through the FLAb antibody collection.